Values of other authors as cited in patent US12139542B2, “Inhibitors of aortic carboxypeptidase-like protein (ACLP)” (TRUSTEES OF BOSTON UNIVERSITY, priority 2014, dated 2024).

Conditions: PEGylated vs native alpha-interferon; cited from earlier work

Substance: Pegasys: PEGylated interferon alpha2a
- antiviral activity relative to the native protein: 7%
